Test results from ChEMBL document CHEMBL4321821, “Opioids as Substrates and Inhibitors of the Genetically Highly Variable Organic Cation Transporter OCT1” (J Med Chem, 2019).

Assays:
Type in all cases: ADME, organism-based
Conditions in all cases: in vivo
[1] = Ratio of unbound maximal portal vein concentration in human at 50 mg, po dosed as slow release formulation to inhibition of human OCT1 expressed in HEK293 cells assessed as reduction in ASP+ substrate uptake by microplate reader based analysis
[2] = Ratio of unbound Cmax in human at 50 mg, po dosed as slow release formulation to inhibition of human OCT1 expressed in HEK293 cells assessed as reduction in ASP+ substrate uptake by microplate reader based analysis
[3] = Ratio of unbound Cmax in human at 10 mg, po dosed as immediate release formulation to inhibition of human OCT1 expressed in HEK293 cells assessed as reduction in ASP+ substrate uptake by microplate reader based analysis
[4] = Ratio of unbound maximal portal vein concentration in human at 10 mg, im to inhibition of human OCT1 expressed in HEK293 cells assessed as reduction in ASP+ substrate uptake by microplate reader based analysis
[5] = Ratio of unbound Cmax in human at 10 mg, iv to inhibition of human OCT1 expressed in HEK293 cells assessed as reduction in ASP+ substrate uptake by microplate reader based analysis
[6] = Ratio of unbound Cmax in human at 10 mg, im to inhibition of human OCT1 expressed in HEK293 cells assessed as reduction in ASP+ substrate uptake by microplate reader based analysis
[7] = Ratio of unbound maximal portal vein concentration in human at 10 mg, po dosed as immediate release formulation to inhibition of human OCT1 expressed in HEK293 cells assessed as reduction in ASP+ substrate uptake by microplate reader based analysis
[8] = Ratio of unbound maximal portal vein concentration in human at 10 mg, iv to inhibition of human OCT1 expressed in HEK293 cells assessed as reduction in ASP+ substrate uptake by microplate reader based analysis

SMILES: CN1CC[C@]23c4c5ccc(O)c4O[C@H]2[C@@H](O)C=C[C@H]3[C@H]1C5 [MORPHINE]
- Ratio [1]: 0.094
- Ratio [2]: 0.0002
- Ratio [3]: 0.0003
- Ratio [4]: 0.021
- Ratio [5]: 0.01
- Ratio [6]: 0.002
- Ratio [7]: 0.019
- Ratio [8]: 0.028
